{"sequences": {"note": "By UniProt entry, the sequences of proteins in these tests, tags left out. Where a name states a change or a piece, a line headed by the entry shows the natural chain unless it says otherwise.", "UniProt P35348": "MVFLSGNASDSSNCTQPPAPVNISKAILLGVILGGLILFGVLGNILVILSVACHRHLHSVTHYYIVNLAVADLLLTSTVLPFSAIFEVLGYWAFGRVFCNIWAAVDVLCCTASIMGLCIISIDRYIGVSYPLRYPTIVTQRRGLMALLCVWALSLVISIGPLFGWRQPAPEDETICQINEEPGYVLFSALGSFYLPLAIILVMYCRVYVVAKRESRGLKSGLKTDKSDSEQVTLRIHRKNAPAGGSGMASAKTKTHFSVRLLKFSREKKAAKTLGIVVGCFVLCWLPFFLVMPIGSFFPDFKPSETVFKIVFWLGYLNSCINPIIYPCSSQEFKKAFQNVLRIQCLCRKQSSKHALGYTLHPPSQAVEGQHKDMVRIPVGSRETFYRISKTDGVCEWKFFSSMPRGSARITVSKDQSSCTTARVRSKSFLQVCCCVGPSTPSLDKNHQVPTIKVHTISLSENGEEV", "UniProt P25100": "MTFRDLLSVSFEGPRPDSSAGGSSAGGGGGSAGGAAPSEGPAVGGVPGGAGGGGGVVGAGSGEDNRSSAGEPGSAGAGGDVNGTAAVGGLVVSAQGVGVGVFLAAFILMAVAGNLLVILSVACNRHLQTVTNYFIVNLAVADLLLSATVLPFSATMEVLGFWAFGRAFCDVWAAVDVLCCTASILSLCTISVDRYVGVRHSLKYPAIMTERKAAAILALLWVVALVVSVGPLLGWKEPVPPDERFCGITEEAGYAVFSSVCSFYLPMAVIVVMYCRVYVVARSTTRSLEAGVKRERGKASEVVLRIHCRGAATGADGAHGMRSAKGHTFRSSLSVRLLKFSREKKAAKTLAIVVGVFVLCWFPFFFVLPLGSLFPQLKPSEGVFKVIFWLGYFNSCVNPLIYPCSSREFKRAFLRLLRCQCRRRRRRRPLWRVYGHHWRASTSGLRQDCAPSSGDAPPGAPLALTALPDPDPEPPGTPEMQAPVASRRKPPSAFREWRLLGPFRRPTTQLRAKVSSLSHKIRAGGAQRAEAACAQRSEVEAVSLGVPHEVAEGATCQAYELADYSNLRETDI", "UniProt P35368": "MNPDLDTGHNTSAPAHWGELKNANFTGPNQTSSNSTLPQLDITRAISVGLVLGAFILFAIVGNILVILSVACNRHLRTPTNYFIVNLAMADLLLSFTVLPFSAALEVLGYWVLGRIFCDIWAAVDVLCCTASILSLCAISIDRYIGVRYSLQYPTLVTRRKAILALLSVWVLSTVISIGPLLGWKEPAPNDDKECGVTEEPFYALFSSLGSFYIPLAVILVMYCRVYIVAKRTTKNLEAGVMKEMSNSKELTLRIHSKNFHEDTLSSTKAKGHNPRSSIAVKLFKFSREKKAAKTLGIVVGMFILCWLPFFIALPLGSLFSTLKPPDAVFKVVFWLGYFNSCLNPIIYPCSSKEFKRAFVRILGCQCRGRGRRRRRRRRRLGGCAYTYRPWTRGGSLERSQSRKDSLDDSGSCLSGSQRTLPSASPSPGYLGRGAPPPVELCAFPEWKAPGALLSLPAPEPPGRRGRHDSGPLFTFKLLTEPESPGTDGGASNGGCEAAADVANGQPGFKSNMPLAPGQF"}, "source": "ChEMBL document CHEMBL1123192", "about": "“Indole-phenol bioisosterism. Synthesis and antihypertensive activity of a pyrrolo analogue of labetalol” (J Med Chem, 1986)", "target": "Adrenergic receptor alpha-1 (Homo sapiens, UniProt P35348+P25100+P35368)", "test": "The compound was evaluated for the antagonistic activity against alpha-1 adrenergic receptor.", "type": "functional, Oryctolagus cuniculus", "data": [{"compound": "CC(CCc1ccccc1)NCC(O)c1ccc(O)c(C(N)=O)c1", "note": "(stereo unspecified) [LABETALOL]", "values": [{"measurement": "pA2", "value": 6.8}]}]}
